Measured affinities in a library of Ab-14 light chain variants

Antigen: PDVDLGDISGINAS, a 14-residue peptide of the SARS-CoV-2 spike HR2 region.

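The starting antibody came from a phage panning campaign against this peptide. AAYL50 was designed without a model: most single CDR substitutions and a random sample of double and triple ones. Affinity was read by AlphaSeq, a pooled yeast mating assay with surface-displayed partners. Mating (16 h, 30 °C) was followed by selection of diploids and sequencing of their barcodes. Read counts were normalised to the haploid input and turned into Kd by a linear fit to BCL2-family pairs of known affinity, for each replicate. There are three technical replicates.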

The variants keep the heavy chain, the linker and the frameworks of Ab-14 (scFv order VH, a (GGGGS)3 linker, VL).
VH: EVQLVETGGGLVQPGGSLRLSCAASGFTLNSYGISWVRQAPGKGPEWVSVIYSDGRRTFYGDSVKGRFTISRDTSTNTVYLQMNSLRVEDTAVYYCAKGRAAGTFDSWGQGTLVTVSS
VL: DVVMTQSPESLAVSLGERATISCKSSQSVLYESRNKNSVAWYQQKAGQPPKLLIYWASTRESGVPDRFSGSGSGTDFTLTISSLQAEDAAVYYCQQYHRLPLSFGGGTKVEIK

Changes read parent residue, position, new residue, counted from the first residue of the VL shown. Every variant below is changed at Q96 of the VL (sequential numbering). Values are log10 of the apparent Kd in nM; lower means stronger binding. A mean of the replicates is given; it leaves out those without a signal. Where no diploid with the target was found in any replicate, the entry reads "not detected": below detection, most likely a poor binder, though not proof of it. The list is sorted by this average, lowest first, undetected variants last. Empty control strains, which show no peptide, gave a signal in 18% of pairings with library AAYL50; the median was 4.19 and 95% of these signals were weaker than 2.99. No background was subtracted.

changes,"mean, log10 nM",detected
L30C W56D Q96I,0.31,3 of 3
Q96H,0.66,3 of 3
R34V Q96E,0.77,3 of 3
S33E S62A Q96F,1.10,3 of 3
Q27C Q96D,1.17,3 of 3
Q96S,1.67,3 of 3
S25E Q96K Y97E,1.79,3 of 3
S33T Q96E,1.93,2 of 3
E61P Q96W,2.41,3 of 3
N37R Q96L R99K,2.47,3 of 3
E32G T59I Q96M,2.54,3 of 3
A57Q Q96P,2.70,3 of 3
L30P S33K Q96A,2.71,2 of 3
T59L Q95R Q96K,2.80,1 of 3
K24V L30H Q96T,3.10,3 of 3
V39C Q96T P101V,3.20,1 of 3
A40Q Q96R,3.24,1 of 3
S33E R34G Q96R,3.26,2 of 3
E32L E61M Q96P,3.29,1 of 3
V29N E32H Q96H,3.33,3 of 3
S58T Q96I,3.35,2 of 3
E61C Q96W S103F,3.38,1 of 3
N35I S58M Q96A,3.43,2 of 3
K24P Q96N,3.59,2 of 3
S25G Q27L Q96Y,3.64,2 of 3
S33P N35W Q96E,3.67,2 of 3
N37Y Q96F L102S,3.69,1 of 3
S25P E61Q Q96C,3.71,1 of 3
V29I N37A Q96R,3.73,1 of 3
N37E A40K Q96M,3.82,1 of 3
W56T A57E Q96T,3.82,2 of 3
S62H Q96A H98Q,3.95,1 of 3
Y31I R60M Q96E,4.19,3 of 3
S25T A40K Q96S,4.23,2 of 3
S33C N37E Q96F,4.25,1 of 3
Y31C Q96M R99W,4.26,1 of 3
S25C S58E Q96I,4.31,3 of 3
L30C Q95H Q96M,4.34,1 of 3
S33V S58C Q96C,4.36,1 of 3
R60N E61A Q96N,4.60,1 of 3
S38K E61Q Q96A,4.82,2 of 3
T59W Q96P L102F,4.89,1 of 3
V29M N37L Q96P,5.01,2 of 3
A40Q W56S Q96H,5.11,1 of 3
Q27I Q96P,5.21,1 of 3
L30T E32T Q96R,5.25,1 of 3
R60V Q96F R99M,5.31,1 of 3
E32V Q96P L100D,5.35,1 of 3
Q96D Y97P,5.47,1 of 3
S33V N35L Q96N,5.78,1 of 3
S26I E32A Q96E,not detected,0 of 3
R34K Q96H Y97G,not detected,0 of 3
S28H Q96H L102G,not detected,0 of 3
Y31D R60D Q96F,not detected,0 of 3
Q27I Q96N P101R,not detected,0 of 3
A40R S62Y Q96T,not detected,0 of 3
N35S A40I Q96G,not detected,0 of 3
S25P V29H Q96I,not detected,0 of 3
V29E Q96M P101I,not detected,0 of 3
S28W Q95H Q96Y,not detected,0 of 3
Q96F P101Q L102Q,not detected,0 of 3
S26L S38V Q96K,not detected,0 of 3
E32V S33C Q96Y,not detected,0 of 3
S28Q A40D Q96I,not detected,0 of 3
V39R W56I Q96S,not detected,0 of 3
S33I A40C Q96D,not detected,0 of 3
N35S S38D Q96E,not detected,0 of 3
S33V Q96E,not detected,0 of 3
S33F Q96M R99H,not detected,0 of 3
A57K Q96K R99Y,not detected,0 of 3

Extract of 12 entries:

| changes | mean, log10 nM | detected |
|---|---|---|
| V39R W56I Q96S | not detected | 0 of 3 |
| K24P Q96N | 3.59 | 2 of 3 |
| T59L Q95R Q96K | 2.80 | 1 of 3 |
| Q27I Q96P | 5.21 | 1 of 3 |
| R34K Q96H Y97G | not detected | 0 of 3 |
| S33V Q96E | not detected | 0 of 3 |
| A40Q Q96R | 3.24 | 1 of 3 |
| S33P N35W Q96E | 3.67 | 2 of 3 |
| R60V Q96F R99M | 5.31 | 1 of 3 |
| E61P Q96W | 2.41 | 3 of 3 |
| Q96H | 0.66 | 3 of 3 |
| S25E Q96K Y97E | 1.79 | 3 of 3 |

Parent in this assay: reference entry 0.65, copy in this library 1.68.

Reference: Engelhart et al. 2022, doi:10.1038/s41597-022-01779-4. File: FLAb, binding data.